One test has as its target Platelet glycoprotein 4 (Rattus norvegicus, UniProt Q07969). As to the kind of experiment: Displacement of photoactivatable [125I]-Tyr-Bpa-Ala-Hexarelin from CD36 in Sprague-Dawley rat cardiac membranes incubated for 60 mins by densitometry. Type of test: cell membranes, Membrane.
Test [1] addresses Growth hormone secretagogue receptor type 1 (Homo sapiens, UniProt Q92847). As to the kind of experiment: Displacement of [125I]ghrelin expressed in LLC-PK1 cells incubated for 1 hr by gamma counting method. The class given is cell-based. Summed up: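 Membranes from LLC-PK1 cells transiently transfected with GHS-R1a (CaPO₄; harvested 24 h later; freeze/thaw lysis, 10000g), 10 μg protein/tube. Incubated with ¹²⁵I-ghrelin (40,000 cpm) and competitor 10⁻¹² to 10⁻⁵ M, 1 h at RT, in Tris/MgCl₂/EDTA/bacitracin buffer pH 7.3. Nonspecific binding set with 10⁻⁵ M competitor. Bound separated by filtration on PEI-soaked GF/C filters, gamma counted.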

Protein sequences, listed by entry. Tags and fused reporters are not part of them. Lines headed by an entry give the natural chain unless they say otherwise; changes in a name come on top.
UniProt Q07969: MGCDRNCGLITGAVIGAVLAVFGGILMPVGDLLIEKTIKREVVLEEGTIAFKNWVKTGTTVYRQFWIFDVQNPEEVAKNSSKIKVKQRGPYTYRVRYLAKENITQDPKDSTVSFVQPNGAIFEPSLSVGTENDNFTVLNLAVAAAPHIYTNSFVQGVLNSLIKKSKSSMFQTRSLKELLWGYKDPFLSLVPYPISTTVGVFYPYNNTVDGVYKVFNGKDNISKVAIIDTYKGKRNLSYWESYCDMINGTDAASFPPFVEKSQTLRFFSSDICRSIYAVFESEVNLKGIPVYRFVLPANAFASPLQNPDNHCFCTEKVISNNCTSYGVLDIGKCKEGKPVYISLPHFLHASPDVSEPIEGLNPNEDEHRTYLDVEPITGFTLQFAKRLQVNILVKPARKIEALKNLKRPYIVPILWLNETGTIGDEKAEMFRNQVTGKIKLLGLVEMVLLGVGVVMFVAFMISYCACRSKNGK
UniProt Q92847, whole entry: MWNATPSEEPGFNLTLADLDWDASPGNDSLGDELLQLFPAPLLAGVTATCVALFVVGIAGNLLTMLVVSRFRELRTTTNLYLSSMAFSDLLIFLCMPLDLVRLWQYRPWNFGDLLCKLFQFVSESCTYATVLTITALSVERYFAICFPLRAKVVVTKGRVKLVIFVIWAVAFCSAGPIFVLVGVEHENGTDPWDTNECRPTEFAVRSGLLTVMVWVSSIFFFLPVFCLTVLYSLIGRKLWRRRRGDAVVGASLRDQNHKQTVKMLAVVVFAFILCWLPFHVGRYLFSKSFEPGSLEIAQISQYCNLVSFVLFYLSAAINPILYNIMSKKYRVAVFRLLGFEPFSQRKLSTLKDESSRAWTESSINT

With `C[C@H](NC(=O)N(Cc1ccc(O)cc1)NC(=O)C(N)Cc1cnc[nH]1)C(=O)N[C@@H](Cc1c[nH]c2ccccc12)C(=O)N[C@H](Cc1ccccc1)C(=O)N[C@@H](CCCCN)C(N)=O` (stereo partly drawn), the IC50 at Platelet glycoprotein 4 turned out to be 1800 nM.
Take `C[C@H](NC(=O)N(CCc1ccccc1)NC(=O)C(N)Cc1cnc[nH]1)C(=O)N[C@@H](Cc1c[nH]c2ccccc12)C(=O)N[C@H](Cc1ccccc1)C(=O)N[C@@H](CCCCN)C(N)=O` (stereo partly drawn): the IC50 is 729 nM in test [1] and 36800 nM on Platelet glycoprotein 4.

The values above are taken from ChEMBL document CHEMBL2163252, “Azapeptide analogues of the growth hormone releasing peptide 6 as cluster of differentiation 36 receptor ligands with reduced affinity for the growth hormone secretagogue receptor 1a” (J Med Chem, 2012).
